According to PubChem BioAssay AID651718 (The Scripps Research Institute Molecular Screening Center, 2012):
Only a part is listed here, and it is no random draw. Active and inactive are the calls of the source. Rule as the data show it: active = inhibition above about 4.5%; inactive = the rest.

test system: Methionine sulfoxide reductase A (Bos taurus); assay: bovine MsrA enzyme inhibitors, primary screen, biochemical, absorbance, HTS (AID 651718); details: purified bovine MsrA, absorbance read-out; at 15.5 µM; stronger effect = higher value;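 also: 0% = vehicle wells with enzyme and 100% = reference inhibitor wells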

| SMILES | inhibition |
| --- | --- |
| CC(=O)Nc1ccc(Oc2c([N+](=O)[O-])cc([N+](=O)[O-])cc2[N+](=O)[O-])cc1 | active: 4.83% |
| CC(=O)Nc1ccc([As](=O)(O)O)c(O)c1 | inactive: -0.49% |
| C[C@H]1OP(=O)(Oc2ccccc2)C[C@@H]2O[C@@H]21 (stereo not given in full) | inactive: 0.45% |
| C[C@@H]1C=CCP(=O)(Oc2ccccc2)O1 (stereo not given in full) | inactive: 0.53% |
| Cc1ccccc1CN(C)C(=O)COC(=O)C(O)(c1ccccc1)c1ccccc1 | inactive: 0.72% |
| COC(=O)C1(C)COP(=O)(NCc2ccccc2)OC1 (stereo not given) | inactive: 0.49% |
| CC(=O)c1ccc(N2CC2c2ccncc2)cc1 (stereo not given) | inactive: 2.15% |
| N#C/C(=C\c1ccc(N(CCBr)CCBr)cc1)C(N)=O | inactive: 0.4% |
| CC(C)(C)C(=O)NC(Sc1ccccc1)C(Cl)(Cl)Cl (stereo not given) | inactive: -0.41% |
| CCc1cc(O)c([N+](=O)[O-])c(C)c1[N+](=O)[O-] | inactive: 0.31% |
| CCOc1ccc(C2=NCC(CBr)S2)cc1 (stereo not given) | inactive: -1.37% |
| O=P1(Nc2nc3ccc(Cl)cc3s2)COc2ccccc2O1 (stereo not given) | inactive: 2.42% |
| O=c1c2cc([N+](=O)[O-])ccc2[nH]c2c([N+](=O)[O-])cc([N+](=O)[O-])cc12 | inactive: 1.64% |
| CN(C)C(=O)Oc1noc2ccccc12 | inactive: -0.93% |
| CC(NC(=O)COC(=O)C(O)(c1ccccc1)c1ccccc1)c1ccccc1 (stereo not given) | inactive: -0.85% |
| Cc1ccccc1OP(=O)(Nc1ccccn1)Oc1ccccc1C | inactive: 1.31% |
| CCC(=O)N1C2C3N(C(=O)CC)C1C1N(C(=O)CC)C(C(N1C(=O)CC)N3C(=O)CC)N2C(=O)CC | inactive: -0.25% |
| O=C(OC1CN2CCC1CC2)c1ccccc1 (stereo not given) | inactive: 0.3% |
| CC(=O)NC(SC(=S)N(CC(C)C)CC(C)C)C(Cl)(Cl)Cl (stereo not given) | inactive: -1.2% |
| Cc1ccc(OP(=O)(Nc2ccccn2)Oc2ccc(C)cc2)cc1 | inactive: 0.04% |
| COC(=O)c1cc2c(s1)N=C(c1ccccc1)N(C)P2(=O)N1CCOCC1 (stereo not given) | inactive: 2% |
| O=P1(N(CCCl)CCCl)OCCC2CCCCN21 (stereo not given) | inactive: -0.35% |

| SMILES | inhibition |
| --- | --- |
| Cc1ccc(NP(=O)(Oc2cccc(C)c2)Oc2cccc(C)c2)nc1 | inactive: -0.54% |
| c1ccc(-c2nn[nH]n2)c(-c2nn[nH]n2)c1 | inactive: -0.35% |
| CCNC(=S)/N=C(\N)N[N+](=O)[O-] | inactive: 1.58% |
| O=C(NC1CCS(=O)(=O)C1)NP(=S)(Oc1ccccc1)Oc1ccccc1 (stereo not given) | inactive: 1.39% |
| O=C(OC1CN2CCC1CC2)c1cccc(Cl)c1 (stereo not given) | inactive: 0.42% |
| C(Cc1nn[nH]n1)Cc1nn[nH]n1 | inactive: -1.38% |
| Nc1ccc([As](=O)(O)c2ccc([N+](=O)[O-])cc2)cc1 | inactive: -0.31% |
| C/C(N)=N\P(=O)(OCc1ccccc1)OCc1ccccc1 | inactive: -0.7% |
| O=[As](O)(c1ccccc1)c1ccc(O)cc1 | inactive: 0.49% |
| CC(=O)NC(SC(=S)N(C)C)C(Cl)(Cl)Cl (stereo not given) | inactive: -1.29% |
| O=[N+]([O-])c1ncn(CCn2cnc([N+](=O)[O-])n2)n1 | inactive: 0% |
| C[C@H]1OP(=O)(Oc2ccccc2)[C@H](O)[C@H](O)[C@H]1N=[N+]=[N-] (stereo not given in full) | inactive: -1.24% |
| O=P(Nc1nc2ccccc2s1)(c1ccccc1)c1ccccc1 | inactive: 0.92% |
| O=P(Nc1ccccn1)(c1ccc(Br)cc1)c1ccc(Br)cc1 | inactive: 2.14% |
| CN(C)C1(CNC(=O)c2ccc(Cl)c(S(N)(=O)=O)c2)CCCCC1 | inactive: -0.52% |
| COc1ccc(N)c([N+](=O)[O-])c1[N+](=O)[O-] | inactive: 0.13% |
| Nc1ccc(CCCCOc2ccccc2)cc1 | active: 4.78% |
| c1nnnn1CCn1cnnn1 | inactive: -1.74% |
| CC(C)C(=O)NC(Sc1ccccc1)C(Cl)(Cl)Cl (stereo not given) | inactive: 1.84% |
| O=P(Nc1nccs1)(c1ccccc1)c1ccccc1 | inactive: -0.5% |
| CC1CCN(C(=O)Oc2c(Cl)cc(Cl)c3cccnc23)CC1 | inactive: -0.42% |
| c1cc(-c2nn[nH]n2)ccc1-c1nn[nH]n1 | inactive: -0.63% |

| SMILES | inhibition |
| --- | --- |
| CN(C)C(=O)OCCc1n(C)cc[n+]1C | inactive: -0.75% |
| CC(C)c1nc(Nc2ccccc2)n(P(=O)(N(C)C)N(C)C)n1 | inactive: 0.13% |
| CC(C)=N/N=C(\N)N[N+](=O)[O-] | inactive: -2.14% |
| CCN(/C(=N/P(=O)(N1CCOCC1)N1CCOCC1)N1CCOCC1)c1ccc(OC)cc1 | inactive: 0.24% |
| C[N+]1=C2C=CC=CC=C2SC12C([N+](=O)[O-])=CC([N+](=O)[O-])=C[C-]2[N+](=O)[O-] (stereo not given) | inactive: 1.56% |
| Nc1ccc([As](=O)(O)c2ccc(N)cc2)cc1 | inactive: 0.9% |
| CCc1nc2c(n1)c1c(non1O)c1c2no[n+]1[O-] | inactive: 1.02% |
| O=[N+]([O-])c1cc([N+](=O)[O-])c(CCNc2ccccc2)c([N+](=O)[O-])c1 | inactive: 3.39% |
| Cc1ccc(NP(=O)(Oc2ccccc2)Oc2ccccc2)nc1 | inactive: 0% |
| O=[N+]([O-])c1cccc2n[nH]nc12 | inactive: 2.26% |
| CC(=O)N1C2C3N(C(C)=O)C1C1N(C(C)=O)C(C(N1C(C)=O)N3C(C)=O)N2C(C)=O | inactive: 0.2% |
| COc1ccc(C2=NCC(CBr)S2)cc1 (stereo not given) | inactive: -0.69% |
| O=C(O)CNc1ccc([As](=O)(O)O)cc1 | inactive: -0.1% |
| COC(=O)C1(C)COP(=O)(Nc2ccccc2)OC1 (stereo not given) | inactive: 0.57% |
| O=[N+]([O-])c1cccc(NC2=NCC(CBr)S2)c1 (stereo not given) | inactive: 0.17% |
| O=[N+]([O-])c1ncn(CCn2ncnc2[N+](=O)[O-])n1 | inactive: 1.13% |
| CC(C)(C)C(=O)NC(Sc1ccncn1)C(Cl)(Cl)Cl (stereo not given) | inactive: 0.82% |
| O=C(Nc1cc([As](=O)(O)O)ccc1O)c1ccccc1 | inactive: 0.05% |
| O=P1(N(CCCl)CCCl)OCCCS1 (stereo not given) | inactive: -0.58% |
| Nc1cccc2ccc([As](=O)(O)O)cc12 | inactive: 1.63% |
| CCN(N=Nc1nonc1N)c1nonc1N | inactive: 2.64% |
